Article PMC9246256, “Structure-based optimization of type III indoleamine 2,3-dioxygenase 1 (IDO1) inhibitors” (Journal of Enzyme Inhibition and Medicinal Chemistry, 2022)

Sequences of proteins named here, by UniProt entry; tags and fusion partners are left off.
UniProt P14902, whole entry: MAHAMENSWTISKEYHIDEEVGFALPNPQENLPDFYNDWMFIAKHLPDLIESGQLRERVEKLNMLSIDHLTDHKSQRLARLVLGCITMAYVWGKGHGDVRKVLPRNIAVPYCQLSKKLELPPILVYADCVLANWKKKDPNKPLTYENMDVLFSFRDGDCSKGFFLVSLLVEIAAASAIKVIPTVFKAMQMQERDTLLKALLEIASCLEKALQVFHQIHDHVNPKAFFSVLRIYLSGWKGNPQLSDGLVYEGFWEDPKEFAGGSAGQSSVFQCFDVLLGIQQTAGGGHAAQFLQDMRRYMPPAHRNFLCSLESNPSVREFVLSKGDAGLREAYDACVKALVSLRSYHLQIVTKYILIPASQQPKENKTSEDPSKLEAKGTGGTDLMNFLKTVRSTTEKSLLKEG

Legend:
[1] = target: purified recombinant IDO1 (Homo sapiens, UniProt P14902); assay: Enzymatic IDO1 inhibition assay (ascorbate/methylene blue reduction system, HPLC detection of kynurenine); assay type: biochemical; settings: ligand efficiency, LE = -RT log(IC50)/number of heavy atoms, from enzymatic IC50
HEK 293 T cells = settings: previously determined; 200 µM; ref 1 of Supporting Information (Röhrig et al. 2021); cited from earlier work
hIDO1 = hIDO1 (Homo sapiens, UniProt P14902); settings: previously determined, ref 1 of Supporting Information (Röhrig et al. 2021), cited from earlier work

Structure (SMILES) | LE [kcal/mol/HA] [1] [kcal/mol/HA] | Tox. [%] (HEK 293 T cells) | Inh. [%] (hIDO1; 200 µM) | IC50 (hIDO1; read-out: IC50 [µM] (cellular))
Cc1ccc(Cl)cc1-c1cn[nH]n1 | 0.56 | – | – | –
Nc1ccc(Cl)cc1-c1cn[nH]n1 | 0.61 | 26 | 100 | 23
